This assay concerns Rattus norvegicus. Description: Narcotic antagonist activity in sc dosed rat assessed as reversal of oxymorphone-induced loss of righting reflex.

The term ED50 denotes the dose at which the effect has come halfway, by size or by number of responders. Turning to `C=CC[C@]12CCN(CC3CC3)[C@H](Cc3ccc(O)cc31)[C@@]2(C)O`, the median effective dose (ED50) worked out at 0.02 mg/kg. For `C=CC[C@]12CCN(CC3CC3)[C@H](Cc3ccc(O)cc31)[C@@]2(C)O.O=C(O)C(O)C(O)C(=O)O`, the 50% effective dose (ED50) amounted to 0.005 mg/kg.

Values taken from ChEMBL document CHEMBL3244082, “5-allyl-9-oxobenzomorphans. 3. Potent narcotic antagonists and analgesics-antagonists in the series of substituted 2',9beta-dihydroxy-6,7-benzomorphans” (1977).
